Test results from patent US20220177537A1 (CHINA PHARMACEUTICAL UNIVERSITY, published 2022).
Read-outs that look alike come from different tables or passages of the source.

How the values were obtained:
Assay in all cases: cell-based or functional assay
[1] = biological target: mGCGR (mouse (read from the printed label 'mGCGR'; not spelled out)) (UniProt Q61606)
[2] = biological target: mGLP1R (mouse (read from the printed label 'mGLP1R'; not spelled out)) (UniProt O35659)
[3] = biological target: mGLP1R (mouse (read from the printed label 'mGLP1R'; not spelled out)) (UniProt O35659); remark: listed apart in the source
[4] = biological target: mGLP1R (mouse (read from the printed label 'mGLP1R'; not spelled out)) (UniProt O35659); remark: listed apart in the source
mGLP1R [5] = biological target: T1, mGLP1R (mouse (read from the printed label …, UniProt O35659 22-463))
T1 sequence (looked up): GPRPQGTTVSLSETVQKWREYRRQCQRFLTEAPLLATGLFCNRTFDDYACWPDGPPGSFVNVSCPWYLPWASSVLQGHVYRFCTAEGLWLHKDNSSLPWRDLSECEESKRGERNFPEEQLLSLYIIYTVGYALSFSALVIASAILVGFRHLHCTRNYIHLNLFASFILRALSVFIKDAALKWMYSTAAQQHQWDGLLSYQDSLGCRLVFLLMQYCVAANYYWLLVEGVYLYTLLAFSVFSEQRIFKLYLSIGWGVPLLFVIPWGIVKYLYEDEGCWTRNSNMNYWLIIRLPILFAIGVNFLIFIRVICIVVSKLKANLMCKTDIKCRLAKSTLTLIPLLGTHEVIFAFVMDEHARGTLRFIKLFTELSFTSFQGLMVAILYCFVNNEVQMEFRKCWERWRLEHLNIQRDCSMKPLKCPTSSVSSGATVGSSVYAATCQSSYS

mGCGR [6] = biological target: T2, mGCGR (mouse (read from the printed label …, UniProt Q61606 27-485))
mGLP1R [7] = biological target: T1, mGLP1R; remark: listed apart in the source
mGCGR [8] = biological target: T2, mGCGR; remark: listed apart in the source
mGLP1R [9] = biological target: T1, mGLP1R; remark: listed apart in the source
mGCGR [10] = biological target: T2, mGCGR; remark: listed apart in the source

Exenatide (from UniProt P26349 48-86) (peptide)
EC50 (cAMP, HEK 293 cells transfected with GCGR) [1]: > 1000 pM | EC50 (cAMP, HEK 293 cells transfected with GLP-1R) [2]: 5.8 pM | EC50 (cAMP, HEK 293 cells transfected with GLP-1R) [3]: 6.2 pM | EC50 (cAMP, HEK 293 cells transfected with GLP-1R) [4]: 6.5 pM

HSQGTFTSDYSKYLDSRRAQDFVQWLMNTKRNRNNIA [Oxyntomodulin (OXM)]
EC50 (cAMP, HEK 293 cells transfected with GLP-1R) (mGLP1R [5]): 15.7 pM | EC50 (cAMP, HEK 293 cells transfected with GCGR) (mGCGR [6]): 6.1 pM | EC50 (cAMP, HEK 293 cells transfected with GLP-1R) (mGLP1R [7]): 22.6 pM | EC50 (cAMP, HEK 293 cells transfected with GCGR) (mGCGR [8]): 7.3 pM | EC50 (cAMP, HEK 293 cells transfected with GLP-1R) (mGLP1R [9]): 17.6 pM | EC50 (cAMP, HEK 293 cells transfected with GCGR) (mGCGR [10]): 6.7 pM
